In US20240409582A1, “DESIGN AND CHARACTERIZATION OF INHIBITORY PEPTIDES (IPEPS) DERIVED FROM OF MIEN 1 PROTEIN SEQUENCE” (priority 2022, published 2024):

Legend:
[1] = In vivo toxicity at three times the experimental dose; design: species or system athymic nude mice; conditions: for tolerability: 90 mg/Kg; for survival: 90 mg/Kg intraperitoneally on Day 5 and Day 15, n=3
Experimental: MDA-MB-231 cells were implanted orthotopically into the second thoracic mammary fat pad of nude mice (n=5). […] The control mice received vehicle only. (B) At the end of the experiments, representative tumors were removed and photographed. […] The Tumor sizes were measured by a digital caliper and shown as mean volume±SD every alternate day for 30 days. […] The statistical analysis was performed on GraphPad Prism 9.4.0.
In another experiment, two groups of mice received three times the experimental dose of both the peptides at 90 mg/Kg on Day 5 and Day 15 to check for potential toxicity.

[2] = Mouse liver microsome stability; format: in vitro ADME; conditions: 2 μM, 0.5 mg/mL microsome protein, NADPH
Experimental: (§1) Analytical LC-MS/MS conditions.
Mouse liver microsome stability. Male ICR/CD-1 mouse microsome fractions (lot 2110330) were purchased from Xenotech (Kansas City, KS). Microsome protein (0.5 mg/mL) was placed in a glass screw cap tube; a 2 mM DMSO stock of (D/L)-LA3IK and (D/L)-RP-7 were spiked into separate 50 mM Tris, pH 7.5 solution and this was added to the microsome solution on ice. The final concentration of compounds after addition of all reagents was 2 μM. An NADPH-regenerating system (1.7 mg/ml NADP, 7.8 mg/ml glucose-6-phosphate, 6 U/ml glucose-6-phosphate dehydrogenase in 2% w/v NaHCO3/10 mM MgCl2) was added for analysis of Phase I metabolism after heating both the regenerating solution and the sample tubes to 37° C. for 5 min in a 37° C. shaking water bath. The incubation was continued and at varying time points after addition of phase I cofactors, the reaction was stopped by the addition of 0.5 ml of acetonitrile containing IS and formic acid such that the final concentration of IS was 100 ng/ml and acid was 0.1%. Time 0 samples were stopped with the acetonitrile solution while still on ice prior to addition of the NADPH regenerating system and compound, which were subsequently added. […] The supernatant was analyzed by LC-MS/MS. […] The half-life (T ½) was calculated as T ½=0.693/slope.

[3] = Plasma stability; format: in vitro ADME, mouse; conditions: 2 μM, 37° C., up to 24 hours
Experimental: as §1
Plasma Stability. CD1 mouse plasma isolated using acidified citrate dextrose (ACD) was purchased from BioIVT and a DMSO stock of each compound was diluted into it at a final concentration of 2 μM. An aliquot was immediately removed for a zero time point and quenched with an equal volume of acetonitrile containing 0.2% formic acid and 200 ng/ml Tolbutamide IS. The remainder of the sample was incubated in a 37° C. water bath for up to 24 hours. Samples were removed at the indicated times and processed as described for the zero time point. After vortexing and centrifugation to pellet protein, the supernatant was analyzed by LC-MS/MS as described above. A control incubation was conducted in saline (0.9% NaCl).

[4] = Pharmacokinetic study in CD-1 mice; conditions: CD-1 female mice, intravenous 5 mg/kg

| AUClast [4] | Substance | tolerability [1] | survival [1] | Mouse Microsome T 1/2 [2] [h] | Murine Plasma T 1/2 [3] [h] | Cl [4] [mL] | Cmax [4] [ng/mL] | Terminal T 1/2 [4] [h] | Tmax [4] [min] | Vss [4] |
| --- | --- | --- | --- | --- | --- | --- | --- | --- | --- | --- |
|  | LAIAVK [LA3IK] | well-tolerated | All mice (n=3) were alive after 30 days | >2 | 2.55 |  |  |  |  |  |
|  | RPPCVIL [RP-7] | well-tolerated | All mice (n=3) were alive after 30 days | 0.872 |  |  |  |  |  |  |
| 203,986 min*ng/ml | d(L)d(A)d(I)d(A)d(V)d(K) [D-LA3IK] |  |  |  |  | 24.5 | 3574 | 3.58 | 5 | 1574 mL/kg |
|  | d(R)d(P)d(P)d(C)d(V)d(I)d(L) [D-RP-7] |  |  |  |  | 1415.5 | 48 | 13.8 | 5 | 1,310,506 mL/kg |
